This data set in a line: in vitro. The note with it: human.

As for `COc1ccc(C[C@H]2NC[C@H](O)[C@H]2OC(C)=O)cc1` [Anisomycin], the CC50 amounted to 0.082 µM.

The values are drawn from publication PMC11145868, “Protein target similarity is positive predictor of in vitro antipathogenic activity: a drug repurposing strategy for Plasmodium falciparum” (Journal of Cheminformatics, 2024).
